Test system: 32D cells expressing insulin receptor and insulin receptor substrate-2 (IRS-2)
Assay: Viability of 32D IR/IRS-2 cells by Trypan Blue exclusion with an automated cell counter
Details: 32DIR-IRS-2 cells, after 72 hours of culture, data not shown

Work on insulin yielded a viability of at most 60%.
